Literature values in US20250026848A1, “IDENTIFICATION OF PATHOGENIC IMMUNE CELL SUBSETS IN CHECKPOINT INHIBITOR-INDUCED MYOCARDITIS” (U.S. GOVERNMENT AS REPRESENTED BY THE DEPARTMENT OF …, priority 2021, published 2025).

System: ICI myocarditis
Conditions: patients with ICI myocarditis, reference 53; cited from earlier work

## abatacept
  treatment of ICI myocarditis: used effectively to treat ICI myocarditis
